These results are taken from patent US10342767B2, “Therapy for kinase-dependent malignancies” (CHILDREN'S HOSPITAL MEDICAL CENTER, priority 2011, dated 2019).

Assay [1] relates to Kit+ cells expressing FLT3ITD and MLLAF9. Kind of assay: CFU assay of Kit+ cells expressing FLT3ITD and MLLAF9. It is filed as cell-based, mouse. The conditions noted are these: 5 nM of AC220.
Assay [2] has as its system CD34 cells expressing FLT3ITD and MLLAF9. Put plainly: Humanized AML model (FLT3ITD:MLLAF9 cord blood CD34 cells), in vitro assay. It is filed as cell-based, human. The conditions noted are these: IL3, IL6, SCF and TPO.
Assay [3] concerns EGFR. The conditions noted are these: NSCLC patients with activating EGFR mutations; cited from earlier work.

`CC(C)(C)c1cc(NC(=O)Nc2ccc(-c3cn4c(n3)sc3cc(OCCN5CCOCC5)ccc34)cc2)no1` [AC220, quizartinib]: the “response of CFUs to Flt3 TKI” value in assay [1] is “resistant”. Moreover, the “response to AC220 in the presence of GF” value in assay [2] is listed as “resistance”.

In the case of `COc1cc2ncnc(Nc3ccc(F)c(Cl)c3)c2cc1OCCCN1CCOCC1` [gefitinib], the response rate result in assay [3] is on record as “approximately 70%”.
